Patent US20090074876A1, “PEPTIDE COMPOSITION AND A METHOD OF PROMOTING CARTILAGE FORMATION” (Acologix, Inc., priority 2007, published 2009)

Test system: human mesenchymal stem cells (hMSC)
Assay: proliferation assay with human mesenchymal stem cells, tritiated thymidine incorporation
Format: cell-based
Conditions: as compared to the vehicle
Procedure: The peptide of SEQ ID NO:34 was tested for its proliferation activity on human mesenchymal stem cells as compared to CMP-2 and IGF-1.
The same protocol and positive controls were used in this experiment.
SEQ ID NO:34 was selected for this experiment since the amino acid sequence of this peptide was derived from the corresponding region in rat and mouse MEPE where AC-100 was derived from human MEPE. Furthermore, as compared to all other known mammalian corresponding regions to AC-100, it is the least homologous to AC-100 (the human sequence).
The degree of activities was very similar among these three materials.

B1: BMP-2: Bone Morphogenetic Protein-2, positive control in hMSC proliferation assay (protein, UniProt P12643 283-396, looked up)
Bone morphogenetic protein 2: QAKHKQRKRLKSSCKRHPLYVDFSDVGWNDWIVAPPGYHAFYCHGECPFPLADHLNSTNHAIVQTLVNSVNSKIPKACCVPTELSAISMLYLDENEKVVLKNYQDMVVEGCGCR
proliferation activities of the hMSC by tritiated-thymidine incorporation: Significant proliferation activities
